Sequences of proteins named here, by UniProt entry; tags and fusion partners are left off.
UniProt P21453, whole entry: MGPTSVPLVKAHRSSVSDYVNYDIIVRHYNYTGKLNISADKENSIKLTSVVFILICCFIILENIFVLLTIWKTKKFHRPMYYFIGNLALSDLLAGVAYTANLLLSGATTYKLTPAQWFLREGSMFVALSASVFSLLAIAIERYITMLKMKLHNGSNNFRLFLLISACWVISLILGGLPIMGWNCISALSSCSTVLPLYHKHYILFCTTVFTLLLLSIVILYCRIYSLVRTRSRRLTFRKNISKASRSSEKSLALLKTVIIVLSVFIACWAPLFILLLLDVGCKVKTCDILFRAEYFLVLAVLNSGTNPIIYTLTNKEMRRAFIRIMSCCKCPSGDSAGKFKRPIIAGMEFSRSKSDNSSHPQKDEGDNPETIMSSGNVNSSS

According to ChEMBL document CHEMBL1154985, “Discovery of a novel series of potent S1P1 agonists” (Bioorg Med Chem Lett, 2010):

Target: Sphingosine 1-phosphate receptor 1 (Homo sapiens, UniProt P21453)
Experiment: Agonist activity at S1P1 receptor expressed in CHO cells after 60 mins by [35S]-GTPgammaS binding assay
Type: functional, cell-based

SMILES	EC50
CCCN(CCC)c1cc(C(=O)Nc2ccc3[nH]ncc3c2)ncn1	7 nM
O=C(Nc1ccc(CCO)cc1)c1cc(NC2CCCCC2)ncn1	> 20000 nM
